# Data from patent publication EP0695544B1, “Hard gelatin capsules resistant to denaturation and the production thereof” (SHIONOGI & CO., LTD., priority 1994, dated 1996).
# Entries after “also recorded” stand apart in the source; their conditions may differ.
# Conditions: capsule shells stored without contact over 95 parts PEG 6000 + 5 parts scavenger, 60°C for a week; 2nd solution of JP12 (37 °C), observed after 5 to 6 minutes
smiles,measurement,value
O=S([O-])[O-].[Na+].[Na+] [sodium sulfite],Solubility,completely prevented the decrease of the solubility; also recorded: soluble rapidly
